{"source": "patent US9315496B2", "about": "“Benzopyrone derivative and use thereof” (HUAZHONG UNIVERSITY OF SCIENCE & TECHNOLOGY, priority 2011, dated 2016)", "tested_on": "KM mice", "settings": "mouse, in vivo", "data": [{"smiles": "Cc1nc2n(c(=O)c1CCN1CCC(c3noc4cc(F)ccc34)CC1)CCCC2", "note": "[risperidone, reference compound]", "values": [{"measurement": "EPS at effective dosage (in words)", "value": "did not cause EPS"}]}]}
